Test results taken from ChEMBL document CHEMBL1133762, “Aureobasidins: structure-activity relationships for the inhibition of the human MDR1 P-glycoprotein ABC-transporter” (J Med Chem, 2000).

System: Saccharomyces cerevisiae
Assay: Relative antifungal activity (against Saccharomyces cerevisiae) compared to AbA

| Structure (SMILES) | antifungal AbA/analogue ratio |
| --- | --- |
| CC[C@H](C)[C@@H]1NC(=O)[C@@H]2CCCN2C(=O)[C@@H](C)N(C)C(=O)[C@H](Cc2ccc(O)cc2)NC(=O)[C@H](C(C)C)N(C)C(=O)[C@@H]([C@@H](C)CC)OC(=O)[C@H](C(C)(C)O)N(C)C(=O)[C@H](CC(C)C)NC(=O)[C@H](C(C)C)N(C)C1=O | 0.016 |
| CC[C@H](C)[C@H]1OC(=O)[C@H](C(C)(C)O)N(C)C(=O)[C@H](CC(C)C)NC(=O)[C@H](C(C)C)N(C)C(=O)[C@H](C(C)C)NC(=O)[C@@H]2CCCN2C(=O)[C@H](Cc2ccccc2)N(C)C(=O)[C@H](Cc2ccccc2)NC(=O)[C@H](C(C)C)N(C)C1=O | 1 |
